Measurements: patent US20230313146A1, “INTESTINAL EPITHELIAL CELL CULTURES” (ARDELYX, INC., priority 2017, published 2023)

System: mouse duodenal, jejunal, and ileal cultures
Test: Differentiation of mouse small intestinal monolayer cultures (global gene expression PCC versus tissue, TEER)
Format: cell-based
Procedure: Approximately 1 μg of the entire isolated RNA was used to prepare each RNA sequencing library. RNA libraries were prepared using the TruSeq Stranded mRNA library preparation kit (Illumina). Most sequencing data were obtained using a NextSeq500 sequencer (Illumina) (2×75 bp, ˜ 30-40 million reads per sample) and some sequencing was performed using a HiSeq sequencer (Illumina) (2×125 bp, ˜ 25-30 million reads per sample). Transcript counts were obtained using the RNA Express application (RNA-Seq reads aligned with the STAR aligner) on the Illumina BaseSpace website.
Pearson correlation coefficients were determined in Microsoft Excel using the Pearson function comparing the transcript count correlation for all genes between two data sets.
On day 2, fresh W2.5ENRY was added to the cultures, and was replaced on day 4. Confluence of the culture was assessed by measuring the TEER. […]
Therefore, global gene expression by RNA sequencing was obtained for 36 culture conditions, taken 4, 6, and 8 days after seeding the cultures, and compared with the gene expression profiles of mouse jejunal villi and crypts. To simplify analysis and to account for changes in global gene expression rather than relying on a handful of marker genes, the Pearson correlation coefficient (PCC) was calculated for the relationship between the gene expression profiles of cultured cells and of mouse jejunal villus cells. […]

B1: BMP 2: human BMP-2 (Peprotech), bone morphogenetic protein used as differentiation promoting factor (protein, UniProt P12643 283-396, looked up)
Bone morphogenetic protein 2: QAKHKQRKRLKSSCKRHPLYVDFSDVGWNDWIVAPPGYHAFYCHGECPFPLADHLNSTNHAIVQTLVNSVNSKIPKACCVPTELSAISMLYLDENEKVVLKNYQDMVVEGCGCR
- correlation of gene expression of cultures with tissues in the jejunum and ileum (PCC) (100 ng/mL, dose titration of individual BMPs): strong correlations of gene expression
- effectiveness at differentiating mouse duodenal, jejunal, and ileal cultures (compared with the BMP mixture (BMP 2, 4, and 7)): as effective as the BMP mixture
